Measurements taken from PMC12680189, “Aotaphenazine, a rare hydrophenazine, targets topoisomerase II with anticancer efficacy: In silico to in vitro evidence” (PLOS One, 2025).

Target: Topoisomerase II (Topo II)
Assay: ELISA-based Topo II inhibition assay kit (Abcam), recombinant human enzyme, colorimetric
Format: biochemical

COc1cccc2c1C(=O)c1c(O)c3c(c(O)c1C2=O)C[C@@](O)(C(=O)CO)C[C@@H]3O[C@H]1C[C@H](N)[C@H](O)[C@H](C)O1 [DOX, doxorubicin]
IC50: 30.2 nM
